Source: ChEMBL document CHEMBL1154777, “Univalent and bivalent ligands of butorphan: characteristics of the linking chain determine the affinity and potency of such opioid ligands” (J Med Chem, 2009)

Species on record: Homo sapiens
Assay: Selectivity ratio of Ki for human delta opioid receptor to Ki for human kappa opioid receptor

Question: Which Ratio Ki does the source give for `O=C(O)CCCCCCCCC(=O)Oc1ccc2c(c1)[C@@]13CCCC[C@H]1[C@@H](C2)N(CC1CCC1)CC3` here?
Answer: The Ratio Ki was 62.
